Results as given in paper PMC7043024.
Where “and” joins values, the source holds several entries; their conditions need not be identical. Equal entries are not always repeated.

Target: 185-bp H3K4-propargyl nucleosome (Xenopus)
Assay: native gel or EMSA; CoREST complex mixed at various ratios with 185-bp H3K4-propargyl nucleosome; 0.7% agarose gel in 0.5x TB, ethidium bromide then InstantBlue; the propargyl group is designed to couple to FAD in the LSD1 active site

CoREST ternary complex (LSD1:RCOR1:HDAC1) (from UniProt O60341 1-852; Q13547 1-482; Q9UKL0 86-485)
stoichiometry N: 1 and 2
